Apparent affinities of Ab-91 variants for a coronavirus HR2 peptide

Target peptide (SARS-CoV-2 spike, HR2 region): PDVDLGDISGINAS

Parent: Ab-91, a human scFv built as VL, the linker GGGGSGGGGSGGGGS, VH. Only the CDRs of the heavy chain vary.
VL: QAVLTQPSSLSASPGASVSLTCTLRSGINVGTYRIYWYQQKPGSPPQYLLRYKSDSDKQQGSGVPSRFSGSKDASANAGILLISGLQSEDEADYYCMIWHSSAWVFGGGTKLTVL
VH: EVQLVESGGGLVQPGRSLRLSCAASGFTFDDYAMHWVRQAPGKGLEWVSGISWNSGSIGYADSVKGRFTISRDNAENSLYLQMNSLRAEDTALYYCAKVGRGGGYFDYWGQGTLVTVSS

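Phage display of a naive human antibody library on the peptide gave the parent. In library AAYL51, one, two or three CDR residues were substituted; doubles and triples were drawn at random. The scFvs were displayed on barcoded MATa yeast, the peptide on MATalpha yeast. The frequency of each diploid, read from paired DNA barcodes, reflects how well the two displayed proteins bind. The ratio of observed to expected reads was calibrated, replicate by replicate, on BCL2-family standards whose Kd was known from biolayer interferometry. The assay was run in three technical replicates.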

Variants are written as CDR1, CDR2 and CDR3 of the heavy chain (limits as in the source). Parent: GFTFDDYAMH, GISWNSGSIGYADSVK, VGRGGGYFDY. All variants listed here change K65 of the VH, counted from its first residue. The Kd shown is the geometric mean over detected replicates; a lower Kd is a better binder. "no signal" marks a missing value. The strain was present, yet no cells mated with the target were sequenced in any replicate, which points to weak or no binding.

With RFTFDDDAMH | GISWNSGSIGYADSVV | VGRGGGYFDY the result was no signal (0 of 3 replicates; controls 0 of 9). The variant GFTFDDYAMH | GISWNSGSIGYADSVI | VGRGGGYHDC showed 4.4 µM (3 of 3 replicates; controls 0 of 9). For GFTFDDYAMH | GISWNSGKIGYADSVG | VQRGGGYFDY, the assay gave 120 µM (1 of 3 replicates; controls 3 of 9). With GFTFDDYAMH | GISWNSNSIGYADSVV | VGRGGGYFIY the result was 68 µM (1 of 3 replicates; controls 0 of 9). The variant GFTPDDYAYH | GISWNSGSIGYADSVP | VGRGGGYFDY gave 390 µM (3 of 3 replicates; controls 4 of 9).

For GFTFDDYAHH | GISWNSGSIGYADSVV | VGRGGGYFDY, the assay gave 110 µM (2 of 3 replicates; controls 0 of 9). With GFTFHDYAMH | GISWNSGSIGYADSVM | VGRGGKYFDY the result was 4.5 nM (3 of 3 replicates; controls 2 of 9). The variant GFTFDDYAMH | GISWNSGSNGYADSVQ | VGRGGGYVDY showed 71 µM (1 of 3 replicates; controls 0 of 9). For GFTFDDYAMH | GISWNSGSIGYADIVN | VGRGGGYFDS, the assay gave no signal (0 of 3 replicates; controls 0 of 9). For GFTFDDYAMH | GISWNSGSIGYADSVP | VGRGGGEFDC, the assay gave no signal (0 of 3 replicates; controls 1 of 9).

The variant GFTFDDYAMH | GISWNSGSIGYADSVM | VGRGGGYFDY showed 100 nM (3 of 3 replicates; controls 3 of 9). The variant GYTFDDYAMH | GIRWNSGSIGYADSVE | VGRGGGYFDY gave no signal (0 of 3 replicates; controls 0 of 9). For GFTFDDYAMH | GISWNSGSYGYADWVC | VGRGGGYFDY, the assay gave 65 µM (3 of 3 replicates; controls 2 of 9). The variant GFTFDDYAMH | GISWNSGSIGVADTVE | VGRGGGYFDY gave no signal (0 of 3 replicates; controls 0 of 9). The variant QFLFDDYAMH | GISWNSGSIGYADSVC | VGRGGGYFDY showed 110 µM (1 of 3 replicates; controls 0 of 9).

With GFTFDDYAMH | GISWNWGSIGYGDSVM | VGRGGGYFDY the result was no signal (0 of 3 replicates; controls 2 of 9). For GFTFDDYAMR | GISWNSGSIGYADSVD | VGRGGGYFDY, the assay gave 400 µM (3 of 3 replicates; controls 8 of 9). With GFTFDDYAMH | GIWWNSGSIGYDDSVS | VGRGGGYFDY the result was 84 µM (2 of 3 replicates; controls 1 of 9). The variant GFTFDDYAMH | GISWNSGSFGYADSVV | AGRGGGYFDY gave 160 µM (2 of 3 replicates; controls 4 of 9). The variant GFTFDDYAMH | GIGWNSGSIGYATSVP | VGRGGGYFDY showed no signal (0 of 3 replicates; controls 0 of 9).

The variant GFTFDDYASH | GISWNSGSIGYADSVS | VGRGGGYFDY showed no signal (0 of 3 replicates; controls 0 of 9). With GFTFDDYAMH | GISWNSGSIGYAISVL | QGRGGGYFDY the result was no signal (0 of 3 replicates; controls 0 of 9). With GFAFDDYAMH | GISWNSGSIGYDDSVC | VGRGGGYFDY the result was no signal (0 of 3 replicates; controls 1 of 9). The variant GFTFDTYAMH | GISWNSGSIGYADSVW | VGRGGCYFDY showed no signal (0 of 3 replicates; controls 0 of 9). The variant GFTFVDYAMH | GISWNSWSIGYADSVH | VGRGGGYFDY gave 1.3 µM (2 of 3 replicates; controls 1 of 9).

The variant GFFFDDYAMH | GISTNSGSIGYADSVT | VGRGGGYFDY gave 170 nM (3 of 3 replicates; controls 5 of 9). The variant GFTFDDYAMH | GISWNSGEIGYADSVM | VGEGGGYFDY gave 14 µM (2 of 3 replicates; controls 1 of 9). With CFTFDDYAMH | GISWNSGSIGYADSVY | VGNGGGYFDY the result was 350 µM (1 of 3 replicates; controls 4 of 9). With GFGFDDYQMH | GISWNSGSIGYADSVF | VGRGGGYFDY the result was no signal (0 of 3 replicates; controls 0 of 9). The variant GFTFDDYAMH | GISWNSGSIYYADSVS | VGRGGGYFDY showed 26 µM (1 of 3 replicates; controls 4 of 9).

The variant GFTFDDKAMH | GIWWNSGSIGYADSVY | VGRGGGYFDY gave 48 µM (1 of 3 replicates; controls 1 of 9).

Again, the first 3 entries without any signal:

CDR-H1	CDR-H2	CDR-H3	Kd	detected	control signals
RFTFDDDAMH	GISWNSGSIGYADSVV	VGRGGGYFDY	no signal	0/3	0/9
GFTFDDYAMH	GISWNSGSIGYADIVN	VGRGGGYFDS	no signal	0/3	0/9
GFTFDDYAMH	GISWNSGSIGYADSVP	VGRGGGEFDC	no signal	0/3	1/9

Nonspecific signal, from three strains lacking the peptide, appeared in 21% of pairings of library AAYL51, centred on 34 µM (5% of these signals below 1.8 µM); values are not corrected for it. Also given: how often the same scFv was detected with the empty control strains.

Data: MIT Lincoln Laboratory AlphaSeq set, Engelhart et al. 2022, doi:10.1038/s41597-022-01779-4, as distributed in FLAb.